The values that follow come from ChEMBL document CHEMBL1156168, “Eastern extension of azoles as non-nucleoside inhibitors of HIV-1 reverse transcriptase; cyano group alternatives” (Bioorg Med Chem Lett, 2010).

Each structure is given as a SMILES string.

The series concerns MT2. The series is described as follows: Cytotoxicity against human MT2 cells by MTT assay. The format is cell-based. In general terms: Tetrazolium assays rely on reduction of a dye to a coloured formazan, in cell work by metabolically active cells.

With `N#Cc1ccc(Nc2ncc(Cc3c(F)cccc3F)o2)cc1Cl`, it took 11 µM to reach half-maximal cytotoxicity (CC50).
